{
  "source": "patent US7199280B2",
  "about": "“Homologous recombination in mismatch repair inactivated eukaryotic cells” (dated 2007)",
  "key": {"[1]": {"tested_on": "Msh2+/− ES cell line sMsh2-21", "assay": "Tolerance (survival) of ES cells after exposure to MNNG in the presence of O6-benzylguanine", "conditions": "1 h exposure, 0 to 36.45 μM MNNG, O6-benzylguanine 20 μM, cells counted after 4 days"}, "[2]": {"tested_on": "Msh2−/− ES cell line dMsh2-9", "assay": "Tolerance (survival) of ES cells after exposure to MNNG in the presence of O6-benzylguanine", "conditions": "1 h exposure, 0 to 36.45 μM MNNG, O6-benzylguanine 20 μM, cells counted after 4 days"}},
  "data": [
    {"molecule": "CN(N=O)C(=N)N[N+](=O)[O-]", "values": [
      {"measurement": "tolerance to MNNG of heterozygous cell line", "setting": "[1]", "value": "no increased tolerance"},
      {"measurement": "increase of LD50 for MNNG in the Msh2−/− cell line compared to the heterozygous and wild-type cell lines", "setting": "[2]", "value": 20, "unit": "fold"}
    ]}
  ]
}
